Screening data deposited in PubChem by National Center for Advancing Translational Sciences (NCATS).
p53 reactivation: mutant p53 re-activation in reporter cells; Potency, µM (doses to about 92.2 µM), for inactives: at the highest dose activity change, positive = activation, most hits filed as activators; 320,000 tested, 0.063% active; AID 504706; H1299 p53-A138V BP100-luciferase reporter, luminescence, 24 h; active = well fitted activation curve with a large enough effect; inconclusive = small, poorly fitted or top-dose-only effect; inactive = no such curve, though single readings can be large or run the other way; also: potency is read from the fitted curve at half-maximal effect; % of control where 0% means no effect; nearly all actives have a fitted effect of over 45% in size
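p53-null H1299 cells stably carrying temperature-sensitive p53-A138V and a BP100-luciferase reporter were pinned with compounds (4-point, 1:5 series) and held 24 hrs at 37 deg C. Luminescence was read 10 min after detection reagent.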
Rango-impB inh: inhibitors of Rango-importin beta complex formation | Q14974 | Rango CFP/YFP FRET sensor + importin beta, 45 min | Potency, µM (titrated, usually from 92.2 µM), for inactives: at the top dose inhibition of complex formation | 340,000 tested, 0.031% active | AID 540263;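 also: potency is read from the fitted curve at half-maximal effect; 0% = DMSO wells and 100% = buffer wells lacking importin beta; nearly all actives have a fitted effect of over 15% in size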
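Inhibition scored from the CFP 486 nm/YFP 530 nm FRET ratio 45 min after adding 0.125 microM importin beta to 50 nM Rango biosensor preincubated 5 min with compound (room temperature, PBS with DTT, Tween-20, BSA). No-importin wells as positive control.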
Rango release inh: prevents RanGTP from dissociating the Rango-importin beta complex; O95149+P62826; Biochemical FRET Rango-importin beta, RanGTP-induced dissociation; Potency, µM (highest dose often 46.1 µM), for inactives: top-dose activity change, negative = inhibition; 340,000 tested, 0.071% active; AID 540253; also: potency is read from the fitted curve at half-maximal effect; % of control where 0% means no effect; nearly all actives have a fitted effect of over 45% in size
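Rango/importin beta premix (0.1/0.25 uM final), PBS + 1 mM DTT + 0.02% Tween-20 + 0.1% BSA; cpd 5 min RT; FRET pre-read; + RanGTP-RCC1 (0.6 uM Ran, 2 mM GTP, 0.2 uM RCC1); 45 min RT; FRET post-read, ex 430, em 486/530 nm.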
pAkt inh: Akt phosphorylation inhibition. Neuro2A IGF-stimulated pAkt S473 HTRF, 20 min; active compounds read low. activity change, % for hits at 50 µM. 360,000 tested, 0.32% active. AID 651550; in the data active = activity change below about -80%; inconclusive = mostly about -51% to -80%; also: % is scaled to controls: 0 for no effect and ±100 for the full control effect
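Single-point screen (50 µM final compound) in Neuro2A cells stimulated 20 min with 6 nM IGF at 37 deg C. After lysis, Ser473-phosphorylated Akt read by HTRF (ex 330 nm, em 615/665 nm) as the 665/615 ratio.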
TSHR antag: antagonists of human thyroid stimulating hormone receptor | P16473 | TSHR-expressing cells, TSH-stimulated cAMP HTRF, 2 h; active compounds read low | activity change, negative = inhibition, % at 11.5 µM | 330,000 tested, 0.2% active;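 active = activity change below a set negative limit, meaning inhibition stronger than a set level, cut at about -70% in these data; inconclusive = activity change between two set negative limits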; also: % is scaled to controls: 0 for no effect and ±100 for the full control effect
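Freshly harvested TSHR cells receive pin-tooled compound, then EC80 TSH at 4nM final. After 2 hours at 37 deg C, antibody in lysis buffer and cAMP-d2 are added; 30 minutes at ambient temperature precede the HTRF read.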
An asterisk follows results filed as active; i = inactive; ? = inconclusive; / = no result. Sampled rows, rich in hits. Any-hit rate of the full collection: about 0.62%. Unless noted, calls follow the shape of the full dose curve.

Every second line gives: p53 reactivation	Rango-impB inh	Rango release inh	pAkt inh	TSHR antag
COc1ccc(OC)c(NC(=O)CSc2nnc(C3CCCCC3)n2-c2ccccc2)c1
→ -12%	-1%	26%	-111%*	-6
COc1ccc(C)cc1NC(=O)CSc1nnc(COc2ccc(Cl)cc2)n1Cc1ccco1
→ 0%	7%	-1%	?	0
Cc1ccc(C)c(NC(=O)CSc2nnc(CSc3nc(C)cc(C)n3)n2Cc2ccco2)c1
→ -1%	1%	4%	-91%*	-13
COc1ccc(C)cc1NC(=O)CSc1nnc(COc2ccccc2)n1Cc1ccco1
→ 3%	-3%	-12%	-98%*	19
COc1ccc(S(=O)(=O)N2CCCC(C(=O)NC3CCCC3)C2)cc1OC (configuration not stated)
→ 2%	-1%	12%	i	-5
CCOC(=O)C1CCN(C(=O)CNC(=O)Cn2c(C)cc3ccccc3c2=O)CC1
→ -2%	-5%	28%	i	1
CCN(CC)C(=O)c1sc(NC(=O)Cc2ccccc2)c(C#N)c1C
→ -15%	0%	10%	-115%*	-17
CN(c1cccc(Cl)c1)S(=O)(=O)c1cccc(C(=O)NC2=NCCS2)c1
→ 4%	1%	10%	i	33
CC(=O)c1c(C)[nH]c(C(=O)OCC(=O)Nc2ccc([N+](=O)[O-])cc2Cl)c1C
→ -10%	3%	-4%	i	-1
O=C(CSc1ccc2ccccc2c1)Nc1ccncc1
→ 0%	1%	0%	i	-29
O=C(CSc1ccccc1)Nc1ccncc1
→ 30%	1%	-9%	-139%*	3
COc1ccc(-c2nnc(SCC(=O)NCCc3ccccc3)o2)cc1
→ 13%	0%	3%	-124%*	-5
COc1cc(OC)c(C(=O)N(CCc2ccccc2)Cc2ccccc2)cc1OC
→ -17%	-5%	1%	i	-14
Nc1ccn(Cc2cccc(Cl)c2)n1
→ 7%	1%	-10%	i	-4
Nc1ccn(Cc2ccccc2F)n1
→ -4%	-1%	-2%	i	-72*
COc1cc(OC)cc(-n2nnnc2SCC(=O)NC2CCCC2)c1
→ -1%	8%	5%	-115%*	-6
Cc1cccc(-n2nnnc2SCC(=O)NC2CCCC2)c1
→ -4%	1%	30%	i	-9
COc1ccc(-n2nnnc2SCC(=O)NC2CCCC2)cc1OC
→ -2%	-4%	2%	i	-92*
COc1ccc(C)cc1-n1nnnc1SCC(=O)NC1CCCC1
→ -2%	3%	4%	i	22
CCOC(=O)C1CCN(C(=O)c2ccc(N3CCOCC3)c([N+](=O)[O-])c2)CC1
→ 20%	-1%	1%	i	10
COc1ccc(CN2CCC(n3nccc3NC(=O)CCOc3ccccc3)CC2)cc1C
→ -5%	3%	2%	i	0
COC(=O)C1=C[C@@H](C(=O)OC)[C@@H]2C3=C(C(=O)[C@@]2(C)NC(=O)c2ccccc2)[C@H](c2ccccc2)n2c(=O)n(-c4ccccc4)c(=O)n2[C@@H]3C1
→ /	2%	14%	i	/
CCCS(=O)(=O)NC(=O)C1(C)CCCN(C(=O)c2ccc(C(F)(F)F)cc2)C1 (configuration not stated)
→ /	/	/	i	/
O=C(CCCN1C(=O)/C(=C/c2ccccc2Cl)SC1=S)Nc1cccnc1
→ 1%	5%	1%	i	-72*
O=C(CCN1C(=O)/C(=C/c2ccccc2Cl)SC1=S)Nc1cccnc1
→ 5%	-1%	-11%	/	-44
CNC(=O)CSc1nc2nn(-c3ccccc3)c(=O)c-2c2n1CCCCC2
→ 1%	-1%	0%	i	-5
O=C(CSc1nc2nn(-c3ccccc3)c(=O)c-2c2n1CCCCC2)c1ccc(O)c(O)c1
→ 28µM*	-3%	2%	i	-16
Cc1cc(C)c(C#N)c(SC(C(=O)NC(C)(C)C)c2ccccc2)n1 (configuration not stated)
→ 0%	-1%	-10%	i	-5
CCN(CC)c1ccc2nc3ccccc3[n+](CC)c2c1
→ -94%	-3%	-14%	i	-140*
Cc1cc(SCC(=O)NC2CC2)nc2ccccc12
→ -6%	-3%	-10%	i	5
Cc1cc(SCC(=O)NCC2CCCO2)nc2ccccc12 (configuration not stated)
→ -5%	37µM*	-7%	i	5
Cc1cc(S(=O)(=O)NCc2ccc(N3CCN(C)CC3)cc2)c(C)s1
→ 0%	-5%	-12%	i	1
CC(=O)N1CCC(C(=O)Nc2ccccc2)(N(Cc2ccccc2)C(=O)c2cccnc2)CC1
→ -33%	0%	4%	-113%*	15
Cc1ccc2nc(-c3ccc(NS(C)(=O)=O)cc3)cc(-c3ccccc3)c2c1
→ -10%	?	8.9µM*	i	24
CCOC(=O)c1c(C)[nH]c(C)c1C(=O)COC(=O)c1ccc(S(=O)(=O)C(F)F)cc1
→ -1%	-2%	1%	i	12
Nn1c(SCC(=O)Nc2ccc(OC(F)F)cc2)nnc(Cc2ccccc2)c1=O
→ -9%	0%	-5%	i	-10
CCC1CCc2sc(C(=O)NCC(c3ccc(OC)cc3)N3CCCC3)cc2C1 (configuration not stated)
→ 3%	58µM*	30%	i	-2
COc1ccc(C(CNC(=O)c2oc3ccc(Br)cc3c2C)N2CCCCC2)cc1 (configuration not stated)
→ 0%	-2%	1.5µM*	i	-13
CCCS(=O)(=O)c1nc(S(=O)(=O)c2ccc(C)cc2)c(N2CCN(CCO)CC2)s1
→ 7%	-1%	7%	i	29
O=C1NC(=S)N/C1=C\c1ccc(N2CCOCC2)cc1
→ 1%	?	8.2µM*	i	-8

2 of these compounds in a different format.
p53 reactivation,Rango-impB inh,Rango release inh,pAkt inh,TSHR antag,compound
13%,0%,3%,-124%*,-5,COc1ccc(-c2nnc(SCC(=O)NCCc3ccccc3)o2)cc1
-17%,-5%,1%,i,-14,COc1cc(OC)c(C(=O)N(CCc2ccccc2)Cc2ccccc2)cc1OC

The main list resumes with the four entries that preceded the break.
Codes: A = p53 reactivation; B = Rango-impB inh; C = Rango release inh; D = pAkt inh; E = TSHR antag
CCC1CCc2sc(C(=O)NCC(c3ccc(OC)cc3)N3CCCC3)cc2C1 (configuration not stated)
  A: 3% | B: 58µM* | C: 30% | D: i | E: -2

COc1ccc(C(CNC(=O)c2oc3ccc(Br)cc3c2C)N2CCCCC2)cc1 (configuration not stated)
  A: 0% | B: -2% | C: 1.5µM* | D: i | E: -13

CCCS(=O)(=O)c1nc(S(=O)(=O)c2ccc(C)cc2)c(N2CCN(CCO)CC2)s1
  A: 7% | B: -1% | C: 7% | D: i | E: 29

O=C1NC(=S)N/C1=C\c1ccc(N2CCOCC2)cc1
  A: 1% | B: ? | C: 8.2µM* | D: i | E: -8

O=C1NC(=S)NC1=Cc1ccc(O)cc1
  A: / | B: ? | C: -13% | D: i | E: /

O=C1Nc2ccccc2N(O)N1c1cc(-c2ccccc2Cl)no1
  A: -1% | B: -2% | C: 3% | D: -110%* | E: 16

COC(=O)[C@@]12C[C@@H](CC(=O)NCc3cccc(C(F)(F)F)c3)C(=O)N(Cc3ccc4c(c3)OCO4)C1=CCC(C)(C)C2
  A: / | B: / | C: / | D: i | E: /

Cc1csc(NC(=O)Nc2cccc(Cl)c2)n1
  A: 28µM* | B: 1% | C: 2% | D: i | E: -14

O=C(Nc1cccc(Cl)c1)Nc1nc(-c2ccccc2)cs1
  A: 6% | B: -3% | C: -7% | D: i | E: -40

CCNC(=O)C1CCCN(C(=O)c2cccc(C(F)(F)F)c2)CC1 (configuration not stated)
  A: / | B: / | C: / | D: i | E: /

NC(=O)c1ccc(NC(=O)CN2C(=O)NC3(CCCCCCC3)C2=O)cc1
  A: -3% | B: 2.1µM* | C: -13% | D: i | E: 4

O=C(CCNC(=O)c1ccccc1)NNC(=O)COc1ccccc1Cl
  A: 2% | B: 2% | C: -2% | D: i | E: -5
